pI50 data for 1 compound are collected here from US20150159167A1, “Plants Tolerant to HPPD Inhibitor Herbicides” (Bayer CropScience AG, priority 2009, published 2015).

This experiment deals with Synechococcus sp. HPPD "SEQ ID No. 5". In words: HPPD activity in presence of HPPD inhibitors (pI50, % inhibition). The note with it: 2 mM HPP, 3 minutes incubation. It counts as biochemical. The text has this: In this content, pI50-value means the log value of the concentration of inhibitor necessary to inhibit 50% of the enzyme activity in molar concentration.

Consider `CS(=O)(=O)c1ccc(C(=O)C2C(=O)CCCC2=O)c(Cl)c1` [Sulcotrione, 2-[2-chloro-4-(methylsulfonyl)benzoyl]-1,3-cyclohexanedione], for which the pI50 is 4.8.
